These are literature values, as cited in patent publication US20200268793A1, “METHODS AND COMPOSITIONS FOR ALLEVIATING CYTOKINE RELEASE SYNDROME” (MEMORIAL SLOAN-KETTERING CANCER CENTER, priority 2017, published 2020).

For the series, the system named is cognate murine receptor. Conditions: cytokines of human origin; cited from earlier work.

Consider IL-2: cytokine of human origin, for which the “Human on mouse (active on the cognate murine receptor)” value is recorded as “Yes^39”.

B1: IL-3: cytokine of human origin (protein, UniProt P08700 20-152, looked up)
Interleukin-3: APMTQTTPLKTSWVNCSNMIDEIITHLKQPPLPLLDFNNLNGEDQDILMENNLRRPNLEAFNRAVKSLQNASAIESILKNLLPCLPLATAAPTRHPIHIKDGDWNEFRRKLTFYLKTLENAQAQQTTLSLAIF
Turning to B1, the “Human on mouse (active on the cognate murine receptor)” value was “No^39”.
